From patent US9963460B1, “Morphinan derivative” (dated 2018)

Key:
mice = assay: Rotarod test (sedative effect); details: 1 to 30 μg/kg s.c., 120 minutes after administration, 8 rpm for 300 seconds, compared with nalfurafine, FIG. 1
ICR male mice = assay: Acetic acid writhing test; details: s.c., 30 minutes before 0.6% acetic acid i.p.

SMILES: CN(Cc1ccccc1)C(=O)C1=C[C@@]23CC[C@]1(O)[C@@H]1Oc4c(O)ccc5c4[C@@]12CCN(CC1CC1)[C@@H]3C5.Cl
- Sedative effect (total number of dropping times) (mice): no sedative effect
- Writhing suppression effect ED50 value (ICR male mice): 1.67 µg/kg
